Patent publication US10336701B2, “Pyridin-2-one derivatives of formula (II) useful as EP3 receptor antagonists” (Janssen Pharmaceutica NV, priority 2017, dated 2019)

Chains of the proteins cited; added tags and fusions are not shown.
UniProt P43115, whole entry: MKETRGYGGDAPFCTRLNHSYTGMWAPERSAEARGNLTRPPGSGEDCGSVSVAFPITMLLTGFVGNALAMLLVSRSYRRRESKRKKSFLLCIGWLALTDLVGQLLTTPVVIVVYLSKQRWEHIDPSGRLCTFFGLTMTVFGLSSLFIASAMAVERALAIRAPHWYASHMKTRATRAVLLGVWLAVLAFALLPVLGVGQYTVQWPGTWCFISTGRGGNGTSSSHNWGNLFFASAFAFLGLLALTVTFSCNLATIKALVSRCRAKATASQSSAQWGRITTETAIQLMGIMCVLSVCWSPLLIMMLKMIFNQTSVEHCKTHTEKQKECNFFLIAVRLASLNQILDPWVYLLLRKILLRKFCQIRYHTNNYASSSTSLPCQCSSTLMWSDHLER

Molecular target: EP3 receptor (Homo sapiens, UniProt P43115)
Assay: [3H]-PGE2 binding assay (EP3 competition binding)
Conditions: read-out: [3H]-PGE2 Binding Ki; tested form: TFA

Structure (SMILES): CCn1ncc2c(F)cc(-c3ccc(C4CC5CN(C(=NC#N)NC(C)C)CC5C4)c(=O)[nH]3)cc21 (stereo not shown)
- Ki: 42 nM
